Assay: Solubility by ultracentrifugation (GLP-1 variants)
Assay type: physicochemical
Description: Relative solubility was measured using a recently developed PEG precipitation assay. For all PYY variants the standard assay worked well, and no changes had to be implemented (Fig. 2a). […] Moreover, to ensure that the results stemming from the AMS assay are consistent and reliable, we performed the 18 A experiments twice independently on different days. The results confirmed that they are indeed replicable, and we were therefore confident to use them for the validation of our approach (Supplementary Fig. 3). […] Even at final concentrations of 0.33 mg/mL (instead of 1 mg/mL) most variants remained insoluble. We used ultracentrifugation to determine the relative solubilities of the GLP-1 variants (Table 3). To confirm the reliability of this method we replicated the results on a different day with the same stock solutions (Supplementary Fig. 4).
Aliquots of 1 mg were prepared from the purified and lyophilised stocks. […] Briefly, a precipitant is titrated in increasing concentration to a fixed concentration of protein to induce precipitation of the protein. The samples are incubated for 48 h at 4° after mixing. The samples are centrifuged and the remaining protein concentration is measured in the supernatant using a plate reader. PYY and 18 A variants were dissolved in 10 mM citrate 10 mM phosphate buffer at pH 7 for a final concentration of 3 mg/mL. The assay was run with 50% 6000 PEG for PYY and with 3.8 M AMS for 18 A. To improve throughput, a multichannel robot was employed to measure several peptides at once with the workflow being kept the same as described previously. […] 120 µL of each sample were centrifuged using an OptimaTLX Ultracentrifuge and spinning for 30 min at 500,000 g at 4 °C. The supernatant was removed, and the peptide concentration was measured using a NanoDrop.

For `CC(C)C[C@H](NC(=O)[C@H](Cc1ccc(O)cc1)NC(=O)[C@H](CO)NC(=O)[C@H](CO)NC(=O)[C@@H](NC(=O)[C@H](CC(=O)O)NC(=O)[C@H](CO)NC(=O)[C@@H](NC(=O)[C@H](Cc1ccccc1)NC(=O)[C@@H](NC(=O)C(C)(C)NC(=O)[C@H](CCC(=O)O)NC(=O)[C@H](C)NC(=O)[C@@H](N)Cc1c[nH]cn1)[C@@H](C)O)[C@@H](C)O)C(C)C)C(=O)N[C@@H](CCC(=O)O)C(=O)NCC(=O)N[C@@H](CCC(N)=O)C(=O)N[C@@H](C)C(=O)N[C@@H](C)C(=O)N[C@@H](CCCCN)C(=O)N[C@@H](CCC(=O)O)C(=O)N[C@@H](Cc1ccccc1)C(=O)N[C@@H](CCCNC(N)=O)C(=O)N[C@@H](C)C(=O)N[C@@H](Cc1c[nH]c2ccccc12)C(=O)N[C@@H](CC(C)C)C(=O)N[C@H](C(=O)N[C@@H](CCCCN)C(=O)NCC(=O)N[C@@H](CCCNC(=N)N)C(N)=O)C(C)C` [Compound 8], the “First Run” value was 2, the “Second Run” value was 2 and the Ultracentrifugation was 2. It also gave a solubility (pH 7, Run 1 solubility (peptide concentration in supernatant)) greater than 2000 µg/mL and a solubility (pH 7, Run 2 solubility (peptide concentration in supernatant)) greater than 2000 µg/mL.

Reference: article PMC10656490, “Sequence-based prediction of the intrinsic solubility of peptides containing non-natural amino acids” (Nature Communications, 2023)
